## Ab-14 light chain CDR variants: yeast mating affinities

Reference: Li et al. 2023, doi:10.1038/s41467-023-39022-2. File: FLAb, binding data.

Antigen: PDVDLGDISGINAS, a 14-residue peptide of the SARS-CoV-2 spike HR2 region.

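Phage display of a naive human antibody library on the peptide gave the parent. This is the validation round: designs drawn from the data on random variants, tested in the same kind of assay. Several design methods are mixed in this list. AlphaSeq pools MATa yeast showing the antibodies with MATalpha yeast showing the peptide. Pairs that bind mate more often; barcode pairs of the diploids are counted by sequencing. Scores were corrected for input abundance and mapped to Kd with protein pairs of known affinity run in the same pool. Mating was done six times.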

Each scFv is VH, a (GGGGS)3 linker, VL, as in the parent Ab-14, and differs from it in the CDRs of the light chain only.
VH: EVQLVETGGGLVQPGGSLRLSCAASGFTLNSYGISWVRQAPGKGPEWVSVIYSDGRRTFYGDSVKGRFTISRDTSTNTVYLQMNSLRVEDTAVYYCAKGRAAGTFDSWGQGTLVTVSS
VL: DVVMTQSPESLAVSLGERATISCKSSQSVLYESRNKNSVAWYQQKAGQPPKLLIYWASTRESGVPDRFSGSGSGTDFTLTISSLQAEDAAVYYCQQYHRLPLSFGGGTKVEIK

Variants are written as CDR1, CDR2 and CDR3 of the light chain (limits as in the source). Parent: KSSQSVLYESRNKNSVA, WASTRES, QQYHRLPLS.
Variants here have more than six changes.
Each Kd is an estimate from the mating assay, the geometric mean of the replicates in which the pair was seen; lower is stronger.
A pair that was not seen in any replicate is written "nd"; this usually means weak binding, but a binder can also be missed.
Of ten entries with the parent sequence, four were seen in most replicates (averages 2.2 nM to 240 nM), three in one and three in none, so single entries are noisy.
Background: pairings of all light chain designs with three empty control strains gave a value in 4% of cases (median 430 nM, 5th percentile 38 nM). Values in that range, when seen in few replicates, are hard to tell from nonspecific mating. The control count says in how many pairings with the empty strains this scFv gave a signal.
In the paper, a design with two or fewer of six values counts as a poor binder.
Values of this round are not directly comparable with the first-round values of the same sequences.

The variant TISQMWHLESKNKNNVA / EESTRED / QSYFRLPLS gave nd (0 of 6 replicates; controls 0 of 18). For NLDKADYESRQMINNIA / DMSTLVA / QQYASLPLD, the assay gave 43 nM (6 of 6 replicates; controls 0 of 18). The variant QIYQAMHTLMQAKDNVA / DVNERGD / QQYYRLPLS gave 1.9 nM (6 of 6 replicates; controls 0 of 18). The variant KISSLTMYESVNKNNIA / EMTTRPE / QSYHRLPLS showed 5.0 nM (6 of 6 replicates; controls 1 of 18). With KQSPQDLQQSRMKNQVA / DASTRES / QQYHRLPLS the result was 750 pM (6 of 6 replicates; controls 1 of 18). For NIYQAMHTLMQVKNNIA / DVTNRNN / QQYHRLPLS, the assay gave 4.8 nM (6 of 6 replicates; controls 0 of 18). The variant KISMTSDMELKNRNSVA / ELVTRMS / QQYNRLPLS showed 4.1 nM (6 of 6 replicates; controls 1 of 18). For QVFFQLFEQGMRSQPIA / GTSMRET / QQYARLPLI, the assay gave 17 nM (6 of 6 replicates; controls 0 of 18).

The variant NLSIQRQHQNMDANAVA / QTEIREV / QQYAILPLA gave 6.5 nM (6 of 6 replicates; controls 0 of 18). The variant KLHISDGYESRNKNSVA / SASTRSH / QQYHRLPLS gave 1.3 nM (6 of 6 replicates; controls 1 of 18). The variant KVSEFMRGLMSRQDSIA / DNVTRSN / QQYDRLPLS showed 79 nM (1 of 6 replicates; controls 1 of 18). For KLMWSMQYLSRNKNSVA / HASYRES / QQYHRLPLS, the assay gave 47 nM (4 of 6 replicates; controls 0 of 18). For HMSMITLMGSRTRNSVA / QMTTREN / QQYDRLPLA, the assay gave 45 nM (6 of 6 replicates; controls 0 of 18). For HISMMVGTKGYLKNSVA / NAETRED / QQYHRLPLS, the assay gave 7.0 nM (6 of 6 replicates; controls 0 of 18). With VFQQQWDGHTLTNSSVA / NVDERME / QQYNRLPLM the result was 400 nM (6 of 6 replicates; controls 1 of 18). With KLRQVTGYESYMKNSVA / QTSTRVS / QDYHRLPLS the result was 3.8 nM (6 of 6 replicates; controls 0 of 18).

The variant QIYAVQDMTSKNSNNVA / EQSTREN / QQYHRLPLS gave 4.1 nM (6 of 6 replicates; controls 2 of 18). The variant HSNGNLRMGERNKNHVA / STDVRES / QQYSRLPLV showed 47 nM (6 of 6 replicates; controls 1 of 18). The variant IISGHMLMESRNKNSVA / NAETREY / QHYDRLPLS showed 33 nM (6 of 6 replicates; controls 2 of 18). For TISQMWFIESKNRNNVA / EMTTREQ / QDYDRLPLS, the assay gave 20 nM (6 of 6 replicates; controls 0 of 18). The variant TIQMFMDNLYGNRNNVA / NTSTLGD / QSYDRLPLS gave 8.6 nM (6 of 6 replicates; controls 2 of 18). For SFSHESLGSKNEEASIA / STETLMS / QDYARLPLA, the assay gave 1.9 µM (2 of 6 replicates; controls 0 of 18). With HITYGMMVAGRHSSSIA / QAEERAK / QQYDRLPLS the result was 5.2 nM (6 of 6 replicates; controls 1 of 18). The variant QIYQAMHTLSQMKDNVA / DVNERGM / QQYFRLPLS gave 2.2 nM (6 of 6 replicates; controls 1 of 18).

With KIELDLTRYNNGYSAIA / GETQKAN / QQYSRLPLV the result was 2.5 nM (6 of 6 replicates; controls 1 of 18). For KLMTSHLYESRMANNVA / AASKREE / QQYHRLPLS, the assay gave 2.8 nM (6 of 6 replicates; controls 2 of 18). For KLNDAYQGDIANNQNIA / SADMLNH / QQYNKLPLS, the assay gave 1.7 nM (6 of 6 replicates; controls 1 of 18). For MMSMGFLGGSRAKNNVA / QESTRES / QQYHRLPLI, the assay gave 7.8 nM (6 of 6 replicates; controls 2 of 18). With KSSQSWLGEDWNKNSVA / QASQRMS / QQYHRLPLS the result was 970 pM (6 of 6 replicates; controls 2 of 18). The variant KISQMVTYESTWHNAIA / QTSEREQ / QQYHRLPFS gave nd (0 of 6 replicates; controls 0 of 18). For HVSESVFAQSKMRNSVA / ENSTREA / QQYDRLPLS, the assay gave 150 nM (6 of 6 replicates; controls 1 of 18). For KLSGSMLYEERMLNSVA / QASQRMS / QQYHRLPLS, the assay gave 790 pM (6 of 6 replicates; controls 1 of 18).

The variant KLVQFMNRGTHHTSNIA / DAVNRID / QQYHRLPLA showed 3.6 nM (6 of 6 replicates; controls 0 of 18). With TISMSMNWLTFNKNSIA / EENTRED / QQYDRLPLS the result was 16 nM (1 of 6 replicates; controls 0 of 18). The variant KLLQTVMNETRHRNNVA / HMTTRED / QQYFRLPLS gave 63 nM (6 of 6 replicates; controls 4 of 18). With KVSEFMRGLMKIKNSIA / DNVTRNN / QQYDRLPLS the result was 250 nM (5 of 6 replicates; controls 0 of 18). For QLMVFNLQAGSTQAAIA / DASHSTD / QQYQRLPLM, the assay gave 6.4 nM (6 of 6 replicates; controls 1 of 18). For MISQLFMYGSRNYNSIA / QASTREK / QQYDRLPLE, the assay gave 14 nM (6 of 6 replicates; controls 0 of 18). For KVSQAVLYESFNKNSVA / HMSTRET / QQYHWQPLS, the assay gave 360 nM (1 of 6 replicates; controls 0 of 18). The variant QFDMHTIQIETIQSSIA / ETSCRAA / QSYVRLPLS gave 130 nM (3 of 6 replicates; controls 1 of 18).

The variant MISNEQDYNYSATNSVA / DVTEKCN / QQYKRLPLT gave 4.2 nM (5 of 6 replicates; controls 0 of 18). With KLQSLWLYESRNKNSVA / NASTRYS / QQYHRLPLS the result was 1.5 nM (6 of 6 replicates; controls 0 of 18). For KLGAWMYWGTEAKYAIA / QDEMRVH / QQYDRLPLT, the assay gave nd (0 of 6 replicates; controls 0 of 18). With KVSEFMRGLMKKQDSIA / DNVTRNS / QQYDRLPLS the result was 23 nM (6 of 6 replicates; controls 3 of 18). With KFSQMVNIESTHVNAVA / QMSTREE / QQYHRLPLS the result was 5.6 nM (6 of 6 replicates; controls 2 of 18). The variant TISQMWFLESKNKNNVA / EESTRMD / QSYFRLPLS gave 2.1 nM (6 of 6 replicates; controls 0 of 18). With VLGQNCSEYDMYCASIA / DAQHREA / QQYYRLPFV the result was 57 nM (6 of 6 replicates; controls 0 of 18). The variant TISQSLLMQTSHKNSVA / GEETRYS / QQYARLPLS showed 1.6 nM (6 of 6 replicates; controls 0 of 18).

The variant ILWQSQLYESRNKNSVA / QASKREM / QQYHRLPLS gave 3.4 nM (5 of 6 replicates; controls 0 of 18). The variant KSEMLVYYGDRNKNSVA / QASTRES / QQYHRLPLS showed 610 pM (6 of 6 replicates; controls 1 of 18). For KLRVMTLTEGYFKNSVA / QASTREN / QSYHRLPLS, the assay gave 29 nM (6 of 6 replicates; controls 0 of 18).

A selection of 8 entries from above:

With NLDKADYESRQMINNIA / DMSTLVA / QQYASLPLD the result was 43 nM (6 of 6 replicates; controls 0 of 18).
With NIYQAMHTLMQVKNNIA / DVTNRNN / QQYHRLPLS the result was 4.8 nM (6 of 6 replicates; controls 0 of 18).
With KLSGSMLYEERMLNSVA / QASQRMS / QQYHRLPLS the result was 790 pM (6 of 6 replicates; controls 1 of 18).
With KLRVMTLTEGYFKNSVA / QASTREN / QSYHRLPLS the result was 29 nM (6 of 6 replicates; controls 0 of 18).
With KLMTSHLYESRMANNVA / AASKREE / QQYHRLPLS the result was 2.8 nM (6 of 6 replicates; controls 2 of 18).
With KFSQMVNIESTHVNAVA / QMSTREE / QQYHRLPLS the result was 5.6 nM (6 of 6 replicates; controls 2 of 18).
With KLVQFMNRGTHHTSNIA / DAVNRID / QQYHRLPLA the result was 3.6 nM (6 of 6 replicates; controls 0 of 18).
With QVFFQLFEQGMRSQPIA / GTSMRET / QQYARLPLI the result was 17 nM (6 of 6 replicates; controls 0 of 18).